Laboratory results reported in paper PMC3030572, “Antamanide, a Derivative of Amanita phalloides, Is a Novel Inhibitor of the Mitochondrial Permeability Transition Pore” (PLoS ONE, 2011).

Tested on: recombinant CyP-D
Experimental: A, B, PTP opening of digitonized wild-type (A) or CyP-D knock-out (B) fibroblasts was measured with the whole-cell CRC assay. Experiments were started by the addition of digitonized cells (not shown) followed by pulses of Ca^2+ (5 µM each) and are plotted as in Figure 1B. The use of AA is shown with a red trace. Alamethicin (Alm, 1 µM) was added at the end of each measurement to fully release Ca^2+ from intracellular stores. […] D, isomerase activity assay (see Materials and Methods): after addition of the substrate peptide N-succinyl-Ala-Ala-cis-trans-Pro-Phe-p-nitroanilide (arrow), chimotrypsin cleaves the trans-isomeric form, causing a rise in absorbance.

## cyclosporin A [CsA]
  inhibition of CyP-D peptidyl-prolyl cis-trans isomerase activity: act as inhibitors of the enzymatic activity of CyP-D
